Assay results taken from PubChem BioAssay AID651965 (National Center for Advancing Translational Sciences (NCATS), 2013).
The list shows a part of the results, in another mix than the full data. Results filed as inconclusive are left out. Activity calls are given as the source filed them. The call rests on the fitted dose curve; in most records, active means well fitted falling curve with a large enough effect; inconclusive means small, poorly fitted or top-dose-only effect; inactive means no such curve, though single readings can be large or run the other way.

By UniProt entry, the sequences of proteins in these tests, tags left out.
UniProt P80244, whole entry: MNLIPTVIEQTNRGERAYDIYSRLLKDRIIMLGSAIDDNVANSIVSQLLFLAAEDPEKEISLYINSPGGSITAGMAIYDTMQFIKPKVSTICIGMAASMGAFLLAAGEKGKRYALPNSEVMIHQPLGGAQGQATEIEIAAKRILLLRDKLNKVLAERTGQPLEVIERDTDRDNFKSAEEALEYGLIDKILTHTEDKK

biological target: ATP-dependent Clp protease proteolytic subunit (Bacillus subtilis (strain 168)) (UniProt P80244); assay: qHTS Assay for Activators of ClpP; further: the source files actives as falling curves though it sought activators and does not explain the sign; nearly all actives have a fitted effect of over 65% in size; details: purified B. subtilis ClpP, FRET peptide cleavage, 20 min; at 57.5 µM (top of the series)

| SMILES | activity change, negative = active |
| --- | --- |
| CCC(=O)N(c1ccccc1)C1(COC)CCN(CCc2cccs2)CC1 | inactive: 0.927% |
| CCC(=O)N(c1ccccc1)C1(COC)CCN(CCn2nnn(CC)c2=O)CC1 | inactive: -1.47% |
